# Measured values reported in US4443607A, “1(2H)-Isoquinolone compounds and acid addition salts thereof” (priority 1981, dated 1984).
# Where a name gives a salt, the structure may show the parent alone.
# Tested on: stomach mucous membrane blood flow
# Assay: Blood flow increasing activity on stomach mucous membrane (aminopyrin clearance method)
# Format: in vivo, Wistar male rats
# Conditions: 20 mg/kg intravenous
# Experimental: The cardia and pylorus of Wistar male rats (body weight, 250 to 300 g) which fasted 16 hours before abdominal section were ligated under urethane anesthesia, and a cannula was inserted into the preventriculus. In order to keep the stomach in normal state, the cannula was fixed externally and the incised abdomen was closed. Separately, a cannula filed with heparin was inserted into carotid artery.
# After operation, the inside of stomach was thoroughly washed with warm physiological saline solution, and 2 ml of a gastric juice (prepared by adjusting a 5% aqueous solution of mannitol to a pH 3.5 with 0.15 N hydrochloric acid, hereinafter the same) was poured into the stomach. Then, aminopyrin was administered via femoral vein at a dose of 30 mg/kg and 30 minutes thereafter aminopyrin was continuously administered at a rate of 6.6 mg/kg/hour. […]
# The collection of gastric juice was conducted at 15 minute intervals and 2 ml of the gastric juice was poured into the stomach between the collections. […] 2 ml of the gastric juice drawn (5 ml) was presented to quantitative determination. […]
# Then, the amount of aminopyrin in the blood sample and the gastric juice was determined quantitatively and the volume of blood flow in the stomach mucous membrane per gram of the stomach tissue per minute was calculated.
smiles,measurement,setting,value
"NC[C@H]1CC[C@H](C(=O)Oc2ccc(CCC(=O)O)cc2)CC1 [cetraxate hydrochloride, reference compound]",blood flow increasing activity (in words),15 and 30 minutes after administration,significant blood flow increasing activity
same,percent increase in blood flow,at 15 and 30 minutes,about 35%
